Measured values as given in US8497385B2, “Bryostatin analogues, synthetic methods and uses” (The Board of Trustees of the Leland Stanford Junior …, priority 2007, dated 2013).

Amino acid sequences for entries named in this document (tags omitted). A change or cut given only in a name is not applied to a line headed by its entry. Residues count along the entry.
UniProt Q05655, 230-280 limits assumed: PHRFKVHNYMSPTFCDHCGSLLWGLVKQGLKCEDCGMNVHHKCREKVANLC

What was measured:
[1] = target: PKCδ-C1B (Homo sapiens (Human), UniProt Q05655); test: PKCδ-C1B Assay; format: binding; settings: for activity in PKCδ-C1B assay relative to comparison analogues: 702.1 vs C26 methyl-containing analogue, 48, 49 vs other C20 esters; for Ki: read-out: PKCδ-C1B Assay Ki, competition with tritiated phorbol 12,13-dibutyrate
[2] = system: P388 cell line; test: P388 Murine Lymphocytic Leukemia Cell Assay; settings: for activity in P388 assay relative to comparison analogues: 702.1 vs C26 methyl-containing analogue, 48, 49 vs other C20 esters; for P388 Assay ED50: 5 days incubation, MTT

Row | SMILES | activity in PKCδ-C1B assay relative to comparison analogues [1] | Ki [1] [nM] | activity in P388 assay relative to comparison analogues [2] | P388 Assay ED50 [2] [nM]
1 | COC(=O)/C=C1\C[C@H]2C[C@H]([C@@H](C)O)OC(=O)C[C@H](O)C[C@@H]3CCC[C@H](C[C@@H]4CCO[C@H](/C=C/C(C)(C)[C@](O)(O2)[C@H]1OC(=O)c1ccccc1)O4)O3 | higher activity | 1.7 | higher activity | 42
2 | CCCCCCCCCCCCCC(=O)O[C@H]1/C(=C/C(=O)OC)C[C@H]2C[C@H]([C@@H](C)O)OC(=O)C[C@H](O)C[C@@H]3CCC[C@H](C[C@@H]4CCO[C@H](/C=C/C(C)(C)[C@]1(O)O2)O4)O3 | higher activity | 1.3 | higher activity | 3.6
